Legend:
[1] = tested on: bone marrow-derived macrophages; assay: Macrophage transwell migration; format: cell-based, mouse
Protocol: (§1) Bone marrow cells from 8- to 12-week-old C57BL/6 J mice were flushed, filtered and cultured in conditioned medium (DMEM/F12 with 10% heat-inactivated FBS, 100 units ml^−1 penicillin/streptomycin, and 20% L929 fibroblasts-conditioned medium) at 37 °C with 5% CO2. After 7–9 days, differentiated macrophages were collected and seeded in 12-well or 6-well plates. […] Macrophages were detached with TrypLE (Gibco) containing 3 mM EDTA, stained with LIVE/DEAD Aqua dye for 20 min on ice, and incubated with blocking solution (10 μg ml^−1 TruStain FcX anti-CD16/32 (clone 93, BioLegend)) for 20 min before staining with antibodies for 30 min on ice. Antibodies from BioLegend included PE anti-CD11b (clone M1/70, 1 μg ml^−1), BV711 anti-F4/80 (clone BM8, 2 μg ml^−1), APC anti-CD80 (clone 16-10A1, 0.5 μg ml^−1) and PE-Cyanine7 anti-CD206 (clone C068C2, 1 μg ml^−1). For intracellular staining, cells were fixed and permeabilized using FluoroFix Buffer and Intracellular Staining Permeabilization Wash Buffer (Perm buffer, BioLegend). APC anti-mouse arginase-1 (Thermo Fisher, Clone AlexF5, 1 μg ml^−1) was added to the Perm buffer and incubated with the cells for 30 min on ice. After washing with Perm buffer and staining buffer, cells were analysed using BD LSR Fortessa X-20 and FlowJo software (BD Biosciences).
Assays were conducted using 6.5-mm-diameter culture plate inserts (Corning) with 5-μm and 3-μm pore sizes for macrophages and neutrophils, respectively. Macrophages (1 × 10^5) or neutrophils (3 × 10^5) in migration media (DMEM/F12 with 0.25% BSA) were added to the inserts. […] Cells were allowed to migrate through the insert membrane for 3-4 h at 37 °C with 5% CO2. For macrophages, the inserts were then fixed with 4% paraformaldehyde, and cells on the upper side were removed. DAPI (1 μg ml^−1) was used to stain cells on the bottom side, and they were counted using a fluorescent microscope. For neutrophils, cells that migrated into the lower chamber were collected and counted using a haemocytometer. The data are presented as the fold change, calculated by dividing the number of cells that migrated in response to treatments by the number of cells that migrated spontaneously (migration media only).
Macrophages (4 × 10^5 cells per well in a 6-well plate) were transfected with 10 nM scrambled siRNA (Silencer Select Negative Control No. 1 siRNA, Thermo Fisher, 4390843) or Silencer Select Pre-Designed siRNA against mouse TSP-1 (Thermo Fisher, s124596) using Reduced-Serum Medium (Opti-MEM, Gibco) and Lipofectamine RNAiMAX (Invitrogen, 51985034) for 6 h. The medium was then replaced with fresh culture medium (DMEM/F12 with 10% FBS). After 24 h, cells were collected for the migration assay. […] After 24 h, cells were collected and co-cultured with dead or dying neutrophils. […]

[2] = tested on: bone marrow-derived macrophages; assay: Macrophage polarization marker expression (CD206, arginase-1, Ly6C); format: cell-based, mouse
Protocol: as §1
Macrophages (4 × 10^5 cells per well in a 6-well plate) were transfected with 10 nM scrambled siRNA (Silencer Select Negative Control No. 1 siRNA, Thermo Fisher, 4390843) or Silencer Select Pre-Designed siRNA against mouse TSP-1 (Thermo Fisher, s124596) using Reduced-Serum Medium (Opti-MEM, Gibco) and Lipofectamine RNAiMAX (Invitrogen, 51985034) for 6 h. The medium was then replaced with fresh culture medium (DMEM/F12 with 10% FBS). After 24 h, cells were collected for the migration assay. […] After 24 h, cells were collected and co-cultured with dead or dying neutrophils. The evaluation of cell death and polarization used the same methods as those for assessing macrophage death and polarization marker expression.

[3] = tested on: Thbs1 expression in macrophages; assay: Gene expression (RNA-seq, qPCR of Thbs1) in macrophages; format: cell-based, mouse; details: CGRP 1 nM, 4 h
Description: After collection, RNA extraction used the RNeasy Plus Micro Kit (Qiagen). For PCR with reverse transcription (RT–PCR) and quantitative PCR (qPCR), reverse transcription used ReverTra Ace (Toyobo). RT–PCR primers were: Human_Calcrl 5′-[…]-3′ and 5′-[…]-3′; Human_Ramp1 5′-[…]-3′ and 5′-[…]-3′; Mouse_Calcrl 5′-[…]-3′ and 5′-[…]-3′; Mouse_Ramp1 5′-[…]-3′ and 5′-[…]-3′. Human or mouse GAPDH primers were from Integrated DNA Technologies (51-01-07-12 and 51-01-07-13, respectively). PCR products were analysed by gel electrophoresis. qPCR was performed using LightCycle96 with software LightCycle96 (Roche Diagnostics) and TaqMan Assay primers from Thermo Fisher Scientific (Thbs1, Mm00449032_g1; Gapdh, Mm99999915_g1). For RNA-seq, RNA quantity and quality assessment, library preparation and sequencing were performed at the Medical Genomics Facility, Monash Health Translation Precinct (MHTP). RNA quantity was assessed using Qubit. RNA samples (20 ng) with RNA integrity number (RIN) value ≥ 7 were used for library preparation. […] Standard Illumina R1 primer was used (main cDNA read), followed by standard i7 primer for index or unique molecular identifier. R2 primer was present but not used as it will read into poly-A tail. […]
Fastq files were processed using the nfCore/RNAseq (v3.2) pipeline using the umi function. Reads were aligned to the Mus musculus GRCm38 reference using STAR aligner. […]

[4] = tested on: Nav1.8^cre/Rosa26^DTA mice; assay: Volumetric muscle loss model, nociceptor-ablated mice; format: in vivo, mouse; details: 1 μg CGRP or equimolar eCGRP via fibrin hydrogel, D12 post-injury; compared with saline control

## calcitonin gene-related peptide [CGRP]
[1]; CGRP 1 nM, Thbs1 siRNA 10 nM, towards CCL2
  effect of CGRP on macrophage migration upon Thbs1 knockdown: abolished
[1]; CGRP 1 nM, with or without CCL2
  migration of Ramp1−/− macrophages: did not inhibit
[1]; CGRP 1 or 20 nM
  macrophage migration in the absence of chemokines: inhibited to some extent
[1]; CGRP 1 or 20 nM, CCL2 10 ng ml−1, 3-4 h
  macrophage migration towards CCL2: severely inhibited
[2]; CGRP 1 nM, Thbs1 siRNA 10 nM, IL-4/IL-13
  effect of CGRP on macrophage polarization (CD206) upon Thbs1 knockdown: abolished
[2]; CGRP 1 or 20 nM, in the presence of IL-4/IL-13
  CD206 level: increased levels
[2]; CGRP 1 or 20 nM, in the presence of IL-10
  arginase-1 level: increased levels
[2]; CGRP 1 or 20 nM, in vitro
  macrophage Ly6C expression: no direct impact
[3]; RNA-seq
  Thbs1 expression in macrophages: most upregulated gene
[3]; qPCR
  Thbs1 expression in Ramp1−/− macrophages: did not upregulate
[4]
  extent of muscle regeneration: enhanced the extent

— publication PMC11023938 (Nature, 2024)
